{
  "source": "paper PMC5454376",
  "about": "(2017)",
  "binders": {"B1": {"name": "Fluorescein-labelled DAPLE peptide (residues 1,662–1,695) (peptide)", "peptide": "SASPSSEMVTLEEFLEESNRSSPTHDTPSCRDDL", "modifications": "5,6-carboxyfluorescein coupled to the resin-bound peptide after chain elongation"}},
  "assay_in_all_cases": "FP",
  "key": {"[1]": {"molecular_target": "T1, Human His-Gαi3 WT (human, UniProt P08754 1-354)", "T1 chain": "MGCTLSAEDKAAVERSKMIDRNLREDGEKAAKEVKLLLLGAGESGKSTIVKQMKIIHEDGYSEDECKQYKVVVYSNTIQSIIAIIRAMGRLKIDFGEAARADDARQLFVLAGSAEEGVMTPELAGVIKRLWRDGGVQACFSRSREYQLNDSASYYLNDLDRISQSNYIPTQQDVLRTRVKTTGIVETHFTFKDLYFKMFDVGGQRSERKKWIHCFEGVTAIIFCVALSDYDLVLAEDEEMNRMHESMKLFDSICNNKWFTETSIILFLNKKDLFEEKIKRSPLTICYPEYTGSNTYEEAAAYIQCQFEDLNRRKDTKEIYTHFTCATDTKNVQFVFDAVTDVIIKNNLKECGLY"}, "[2]": {"molecular_target": "T1, Human His-Gαi3 WT"}, "[3]": {"molecular_target": "T2, Full-length human Gαi3, untagged (NMR sample) (human, UniProt P08754 1-354)", "T2 chain": "T1 chain"}, "[4]": {"molecular_target": "T1, Human His-Gαi3 WT"}},
  "note": "Where two headings read alike, the source gives them in different places.",
  "data": [
    {"binder": "B1", "values": [
      {"measurement": "Kd", "setting": "[1]", "value": 303, "unit": "nM"},
      {"measurement": "Kd", "setting": "[2]", "value": 300, "unit": "nM"},
      {"measurement": "Kd", "setting": "[3]", "value": 370, "unit": "nM"},
      {"measurement": "Kd", "setting": "[4]", "value": 300, "unit": "nM"}
    ]}
  ]
}
